Binding of CDR-mutated scFvs to a peptide of the spike HR2 region

Values reported by Li et al. 2023, doi:10.1038/s41467-023-39022-2 (FLAb copy).

Binding partner: SARS-CoV-2 spike HR2 peptide, sequence PDVDLGDISGINAS.

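The starting antibody came from a phage panning campaign against this peptide. Designed CDR sequences, proposed from the first random library and measured here. Several design methods are mixed in this list. Affinity was read by AlphaSeq, a pooled yeast mating assay with surface-displayed partners. Pairs that bind mate more often; barcode pairs of the diploids are counted by sequencing. A regression on co-assayed BCL2-family reference pairs converts the normalised counts of each replicate to an apparent Kd. The assay was run in six technical replicates.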

Each scFv is VH, a 15-residue (Gly4Ser)3 linker, VL, as in the parent Ab-14, and differs from it in the CDRs of the heavy chain only.
VH: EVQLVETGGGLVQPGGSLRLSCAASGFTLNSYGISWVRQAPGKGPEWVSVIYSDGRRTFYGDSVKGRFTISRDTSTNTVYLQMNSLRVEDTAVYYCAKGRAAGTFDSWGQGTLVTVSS
VL: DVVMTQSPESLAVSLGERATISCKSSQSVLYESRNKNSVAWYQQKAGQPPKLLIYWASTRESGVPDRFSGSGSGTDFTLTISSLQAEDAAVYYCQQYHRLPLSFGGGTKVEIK

Variants are written as CDR1, CDR2 and CDR3 of the heavy chain (limits as in the source). Parent: GFTLNSYGIS, VIYSDGRRTFYGDSVK, GRAAGTFDS. This list holds designs with more than six substitutions. Each Kd is an estimate from the mating assay, the geometric mean of the replicates in which the pair was seen; lower is stronger. "nd" means that the variant was in the library but no mating with the target was seen in any replicate; the authors take this as a sign of poor binding, and no number exists. Background: pairings of all heavy chain designs with three empty control strains gave a value in 1% of cases (median 120 nM, 5th percentile 7.0 nM). Values in that range, when seen in few replicates, are hard to tell from nonspecific mating.

CDR-H1	CDR-H2	CDR-H3	Kd	detected
GFDLNEYGIS	VIYADGRRTFYSDSVK	GENAGFFDT	nd	0 of 6
GFDLSEYGIS	VIYADGMRTAYSDSVK	GNVAGTFDV	19 nM	4 of 6
GFDLNEYGIS	VIYADGVRTAYSDNVK	GNQAGTFDV	39 nM	2 of 6
GFNLDEYGIS	VIYADGQRVAYANNVK	GKNGAFFSN	nd	0 of 6
GFNLDEYGIS	VIYADGMRNAYRDTVK	GAHSFGLKT	nd	0 of 6
GFDLNEYGIS	VIYADGRRTFYADSVK	GEAGGTFDM	590 pM	6 of 6
GFNLNEYGIS	VIYADGRRTFYSDDVK	GEFAGTFDL	2.0 nM	6 of 6
GFDLNEYGIS	VIYADGARSFYTNKVK	GVTVGDNGT	nd	0 of 6
GFDLDEYGIS	VIYADGVRTAYADSVK	GENAGTFDL	980 pM	6 of 6
GFDLNEYGIS	VIYADGMRTAYSDSVK	GQNAGTFDQ	1.6 nM	6 of 6
GQNLDEYGIS	VIYADGMRKWYADDVK	GIMSAGVIT	nd	0 of 6
GFDLEDYGIS	VIYADGRRTFYVDSVK	GKVAGTFDV	260 pM	6 of 6
GEDLDEYGIS	VIYADGQRTAYDEAVK	GTIAGSFFH	nd	0 of 6
GFDLNEYGIS	VIYADGRRTFYADSVK	GKIAGTFNM	690 pM	4 of 6
GFSIDEYGIS	VIYADGVRQAYQDDVK	GQIGGFFNY	96 nM	2 of 6
GFDLNEYGIS	VIYADGKRTAYSDSVK	GGNAGTFDL	480 pM	6 of 6
GFDLNEYGIS	VIYADGRRTAYSDSVK	GNEAGTFDI	370 pM	5 of 6
GFNINEYGIS	VIYADGQRLSYDDNVK	GEITGTFNS	670 nM	3 of 6
GFDLDEYGIS	VIYADGMRTFYADSVK	GEAAGTFDS	430 pM	6 of 6
GFDLNEYGIS	VIYADGRRTAYIDSVK	GHVAGTFDV	220 pM	6 of 6
GFQLDEYGIS	VIYADGQRTFYADSVK	GEVAGTFDV	540 pM	6 of 6
GFNLEDYGIS	VIYADGRRTFYADSVK	GQVAGTFDV	490 pM	6 of 6
GFDLNEYGIS	VIYADGMRTAYADDVK	GNNAGTFDL	380 pM	6 of 6
GFDINEYGIS	VVYADGMRQAYAENVK	GELSGTFDA	2.0 nM	6 of 6
GFCLNSYGIS	VIYSDGQRTFYQDQVK	GTLAGTFPS	nd	0 of 6
GFDLDEYGIS	VIYADGMRTFYADSVK	GNIAGTFVS	320 pM	6 of 6
GYTLNQYGIS	VIYSDGRRTFYLDSVR	GSIPGFFDS	nd	0 of 6
GFDLNEYGIS	VIYADGMRTYYADSVK	GSNAGTFDM	690 pM	6 of 6
GFTLDEYGIS	VIYADGRRTFYADSVK	GNVAGTFDV	230 pM	6 of 6
GFDLNEYGIS	VIYADGMRTFYSDSVK	GQTAGTFDV	280 pM	6 of 6
GFDLNEYGIS	VIYADGVRTAYADDVK	GETAGTFDQ	930 pM	6 of 6
GFDLNEYGIS	VIYADGRRTFYTDSVK	GQNAGTFDV	190 pM	6 of 6
GFDLNEYGIS	VIYADGKRTAYIDSVK	GNVAGTFDQ	220 pM	6 of 6
GFDLQEYGIS	VIYADGSRTAYVQNVK	GLTLDSYVV	nd	0 of 6
GFDLNEYGIS	VIYADGQRTYYADSVK	GETAGTFDV	180 pM	6 of 6
GFDINEYGIS	VIYADGKKTAFANSVK	GESAGNFDD	44 nM	1 of 6
GFNLDEYGIS	VIYADGVRTQYAQSFK	GMNNGYIAG	nd	0 of 6
GFDLNEYGIS	VIYADGVRTYYADSVK	GETAGTFDV	720 pM	6 of 6
GFQLNEYGIS	VIYADGIRREYADKVK	GGINASFDV	nd	0 of 6
GFDLNEYGIS	VIYADGRRTFYADSVK	GKLAGTFDQ	220 pM	6 of 6
GYSLDDYGIS	VIYADGKRTSYAEDVK	GNNGGSFMN	nd	0 of 6
GQDLEEFGIS	VIYADGMRAAYADNVK	GVKVGNVTI	nd	0 of 6
GFDLNEYGIS	VIYADGLRTAYADDVK	GTNAGTFDV	290 pM	6 of 6
GFDLNEYGIS	VIYADGRRTSYVDSVK	GVNAGTFDV	510 pM	6 of 6
GFDLNEYGIS	VIYADGRRTGYADSVK	GQLAGTFDT	140 pM	6 of 6
GFDLNEYGIS	VIYADGRRTFYADNVK	GEVAGTFDL	270 pM	6 of 6
GFGMEEYGIS	VIYADGQRNAYADEVK	GENAGSFDI	820 pM	6 of 6
GKDLQEYGIS	VIYADGARTAYSNSVK	GTQDISLIV	63 nM	1 of 6
GFDLNEYGIS	VIYADGKRTVYSDSVK	GNVAGTFDV	160 pM	6 of 6
GYDLQDYGIS	VIYADGVRVAYHQSVK	GQTAGIFLL	1.5 nM	5 of 6
GEDLDEYGIS	VIYADGLRTAYSDNFK	GHLGGQFDM	nd	0 of 6
GFDLNEYGIS	VIYADGMRTFYIDSVK	GEAAGTFDM	340 pM	6 of 6
GFDLNEYGIS	VIYADGRRTAYADSVK	GKVAGTFDV	280 pM	6 of 6
GFDLDEYGIS	VIYADGMRTAYSDNVK	GENAGTFDV	14 nM	5 of 6
GFDLEEYGIS	VIYADGKRTAYADSVK	GNNAGTFDV	520 pM	6 of 6
GFNLDEYGIS	VIYADGMRTAYADSVK	GNVAGTFDQ	270 pM	6 of 6
GFNINEYGIS	VIYADGVRTHYVDDVK	GKHTGVKMD	820 nM	1 of 6
GEDLLEYGIS	VIYADGSRVAYTNAVK	GNLAGAFDL	nd	0 of 6
GFDLDEYGIS	VIYADGKRTYYADSVK	GNQAGTFDV	570 pM	6 of 6
GFDLNEYGIS	VIYADGMRTAYTDSVK	GNVAGTFDV	690 pM	6 of 6
GFDLNEYGIS	VIYADGVRKAYADSVK	GNQAGTFDL	570 pM	6 of 6
GDSLAEYGIS	VIYADGERSAYKDSFK	GWVAGYFDV	nd	0 of 6

The 9 strongest on average among those seen in every replicate, once more:

CDR-H1	CDR-H2	CDR-H3	Kd	detected
GFDLNEYGIS	VIYADGRRTGYADSVK	GQLAGTFDT	140 pM	6 of 6
GFDLNEYGIS	VIYADGKRTVYSDSVK	GNVAGTFDV	160 pM	6 of 6
GFDLNEYGIS	VIYADGQRTYYADSVK	GETAGTFDV	180 pM	6 of 6
GFDLNEYGIS	VIYADGRRTFYTDSVK	GQNAGTFDV	190 pM	6 of 6
GFDLNEYGIS	VIYADGKRTAYIDSVK	GNVAGTFDQ	220 pM	6 of 6
GFDLNEYGIS	VIYADGRRTFYADSVK	GKLAGTFDQ	220 pM	6 of 6
GFDLNEYGIS	VIYADGRRTAYIDSVK	GHVAGTFDV	220 pM	6 of 6
GFTLDEYGIS	VIYADGRRTFYADSVK	GNVAGTFDV	230 pM	6 of 6
GFDLEDYGIS	VIYADGRRTFYVDSVK	GKVAGTFDV	260 pM	6 of 6

The range of this assay differs from that of the first round, and the authors advise against merging the two. In the paper, a design with two or fewer of six values counts as a poor binder.